Test results: patent US8778872B2 (priority 2010, dated 2014)

Amino acid sequences for entries named in this document (tags omitted). Residues count along the entry.
UniProt P43220, 24-463, species assumed: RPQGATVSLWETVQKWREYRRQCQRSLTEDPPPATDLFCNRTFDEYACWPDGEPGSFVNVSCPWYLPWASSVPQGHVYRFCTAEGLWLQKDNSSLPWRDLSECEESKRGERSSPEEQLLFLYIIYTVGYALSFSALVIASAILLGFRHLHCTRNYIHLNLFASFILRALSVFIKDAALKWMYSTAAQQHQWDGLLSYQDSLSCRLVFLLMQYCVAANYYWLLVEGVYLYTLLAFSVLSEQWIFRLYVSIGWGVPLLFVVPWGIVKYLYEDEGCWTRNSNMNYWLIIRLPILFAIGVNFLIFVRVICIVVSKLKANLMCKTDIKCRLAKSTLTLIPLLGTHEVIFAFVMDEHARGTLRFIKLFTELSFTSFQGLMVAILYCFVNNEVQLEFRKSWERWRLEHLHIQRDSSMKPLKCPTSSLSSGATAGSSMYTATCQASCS

Target: GLP-1 receptor (Homo sapiens, UniProt P43220)
Assay: Luciferase-based reporter gene assay for cAMP detection, HEK293 cells co-transfected with GLP-1 receptor (prodrug samples pre-incubated in PBS or plasma)
Settings: plasma

half-life: ~10 h
Structure (SMILES): CC[C@H](C)[C@H](NC(=O)[C@H](Cc1ccccc1)NC(=O)[C@H](CCC(=O)O)NC(=O)[C@H](CCCCN)NC(=O)[C@H](C)NC(=O)[C@H](C)NC(=O)[C@H](CCC(N)=O)NC(=O)CNC(=O)[C@H](CCC(=O)O)NC(=O)[C@H](CC(C)C)NC(=O)[C@H](Cc1ccc(O)cc1)NC(=O)[C@H](CO)NC(=O)[C@H](CO)NC(=O)[C@@H](NC(=O)[C@H](CC(=O)O)NC(=O)[C@H](CO)NC(=O)[C@@H](NC(=O)[C@H](Cc1ccccc1)NC(=O)[C@@H](NC(=O)CNC(=O)[C@H](CCC(=O)O)NC(=O)[C@H](C)NC(=O)[C@H](Cc1c[nH]cn1)NC(=O)CN(C)C(=O)[C@H](N)CCCCN)[C@@H](C)O)[C@@H](C)O)C(C)C)C(=O)N[C@@H](CS)C(=O)N[C@@H](Cc1c[nH]c2ccccc12)C(=O)N[C@@H](CC(C)C)C(=O)N[C@H](C(=O)N[C@@H](CCCCN)C(=O)NCC(=O)N[C@@H](CCCNC(=N)N)C(N)=O)C(C)C [dLys^−1-Sar^0,C^24GLP(7-36)]
